Yeast mating assay B: variants of the scFv Ab-14

Reference: Li et al. 2023, doi:10.1038/s41467-023-39022-2. File: FLAb, binding data.

Target peptide (SARS-CoV-2 spike, HR2 region): PDVDLGDISGINAS

The variants keep the heavy chain, the linker and the frameworks of Ab-14 (scFv order VH, the linker GGGGSGGGGSGGGGS, VL).
VH: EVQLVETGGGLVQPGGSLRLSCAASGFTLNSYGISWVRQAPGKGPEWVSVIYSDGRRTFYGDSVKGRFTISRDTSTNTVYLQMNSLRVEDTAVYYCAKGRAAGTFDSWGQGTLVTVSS
VL: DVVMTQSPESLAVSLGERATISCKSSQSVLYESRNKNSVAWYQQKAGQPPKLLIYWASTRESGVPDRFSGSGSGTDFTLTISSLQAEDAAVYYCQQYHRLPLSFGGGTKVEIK

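The parent was found by panning a naive human phage display library on the peptide. The variants were designed computationally from a first round of random CDR variants and then made and measured. Their group label is 14L_En_Gen (En: ensemble of fine-tuned language models; Gen: genetic algorithm). AlphaSeq pools MATa yeast showing the antibodies with MATalpha yeast showing the peptide. Binding brings cells together so that they mate, and sequencing counts the barcode pairs among the diploids. Read counts were normalised to the haploid input and turned into Kd by a linear fit to BCL2-family pairs of known affinity, for each replicate. The assay was run in six technical replicates.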

Variants are written as CDR1, CDR2 and CDR3 of the light chain (limits as in the source). Parent: KSSQSVLYESRNKNSVA, WASTRES, QQYHRLPLS.
Numbers give log10(Kd / nM), so 0 is 1 nM and 3 is 1 µM. Smaller is tighter.
A mean of the replicates is given; it leaves out those without a signal.
Where no diploid with the target was found in that replicate, the entry reads "nd": below detection, most likely a poor binder, though not proof of it.
As a blank, each scFv also met three strains without target: over all light chain designs, 4% of these pairings were detected, typically at 2.64 and seldom below 1.59. Also given: how often the same scFv was detected with the empty control strains.
The authors' rule: three or more of the six replicates give a measured affinity, fewer mean a poor binder.
The parent sequence was in this pool as ten entries: three were never detected, three once, and four in most replicates, with averages from 0.34 to 2.37.
Values of this round are not directly comparable with the first-round values of the same sequences.

KIGMTLNQLYEKKNNVA | DLVERVN | QQYHRLPLS: 0.38, -0.01, 0.39, 0.43, 0.21, 0.65 (mean 0.34; controls 1 of 18).
MVTQMAMTGMMSKRSVA | NAETREH | QQYHHLPLI: 1.38, 1.01, 1.03, 0.86, 1.02, 1.25 (mean 1.09; controls 2 of 18).
KLSMITGHMSVSKNNVA | EMETRFN | QQYDRLPLS: 0.82, 0.40, 0.79, 0.68, 0.63, 0.62 (mean 0.66; controls 1 of 18).
MVTQMAMSGMTNKRSVA | NAETREY | QQYNRLPLI: -0.16, -0.53, -0.58, -0.40, -0.81, -0.34 (mean -0.47; controls 0 of 18).
VISELYNEAIGMRNNVA | NNQTRED | QQYARLPLS: 1.73, 1.79, 1.57, 1.85, 1.51, 1.80 (mean 1.71; controls 1 of 18).
KLALITGLEKVSNNNVA | EMETRER | QQYNRLPLS: 0.57, -0.02, 0.39, 0.14, 0.10, 0.77 (mean 0.33; controls 0 of 18).
KISQMVRVGSTVSNSIA | EMVTRVK | QQYHRLPLA: nd, nd, 1.41, 1.85, nd, nd (mean 1.63; controls 0 of 18).
IIDQIMYHGNKRANSIA | QASERVN | QQYHHLPLQ: nd, 0.03, nd, nd, nd, nd (controls 0 of 18).
KIGATLNTLYEKKNNVA | DLVVREE | QQYHRLPLS: 0.99, 0.96, 2.00, 0.52, 1.28, 2.55 (mean 1.38; controls 1 of 18).
TIGGTLMYGYRNRNNVA | EVSERLN | QQYDRLPLI: 0.62, 0.87, 0.74, 0.96, 0.73, 0.60 (mean 0.75; controls 0 of 18).
TISQLYNMGQFAINSVA | QASERSN | QQYDRLPLM: 0.75, 0.43, 0.47, 0.66, 0.17, 0.24 (mean 0.45; controls 2 of 18).
TISQMTSLFSQSINNVA | EVSMREN | QQYDRLPLS: 0.53, 0.28, 0.59, 0.46, 0.26, 0.13 (mean 0.37; controls 2 of 18).
KVSEFMRGLMQRKDSIA | DNETRGN | QQYDRLPLS: 2.50, 0.98, 1.68, 1.34, 2.68, 1.69 (mean 1.81; controls 0 of 18).
KIGMSLNQLMHTKNNVA | DLVTREQ | QQYHRLPLS: 1.83, 0.86, 0.45, 0.57, 0.27, 0.90 (mean 0.81; controls 1 of 18).
KLTMIQGTEKVRGNNVA | EMETREN | QQYNRLPLS: 0.07, 0.12, 0.06, 0.06, -0.03, -0.13 (mean 0.03; controls 0 of 18).
TISQLMNMGQFAINSVA | QASIRNM | QQYDRLPLA: 1.30, 1.64, 1.08, 2.03, 1.80, 1.72 (mean 1.60; controls 0 of 18).
QIYQAMHTLMQQKNNVA | DVTNRQK | QQYNRLPLS: -0.05, 0.15, -0.17, -0.14, 0.16, 0.21 (mean 0.03; controls 1 of 18).
KLYEMVASTMMNIRNVA | DNSTREY | QQYNRLPLS: nd, nd, nd, 1.42, nd, nd (controls 0 of 18).
SISGFMKSSMAHHNSVA | DMTNRED | QQYDRLPLS: 0.11, 0.11, 0.02, -0.25, -0.20, 0.02 (mean -0.03; controls 1 of 18).
KLSMVTGHLSVEKNNVA | EMETREN | QQYDRLPLS: 0.59, 0.73, 0.96, 0.73, 0.69, 0.93 (mean 0.77; controls 0 of 18).
MLSMVTEGMVRKHDSVA | DNSTRED | QQYDRLPLS: nd, 1.32, 1.78, 0.64, 0.96, 1.42 (mean 1.22; controls 0 of 18).
MISNVMNTLTRYGNNVA | DLQEREE | QQYFRLPLS: 0.73, 0.52, 0.49, 1.19, 0.66, 0.55 (mean 0.69; controls 0 of 18).
MISQLMNMGTFAINSVA | QASLRNE | QQYDRLPLI: 1.27, 1.24, 1.48, 0.70, 1.68, 2.96 (mean 1.56; controls 0 of 18).
KISQMVRVGSTHHNSIA | EEATRAK | QQYHRLPLA: 0.49, 2.07, 1.44, 1.22, 0.70, 1.35 (mean 1.21; controls 1 of 18).
MLSQMWALGMKVSNSVA | QASTRFE | QQYERLPFI: nd, 2.17, 1.49, 0.95, 0.89, 1.54 (mean 1.41; controls 0 of 18).
KISYLQNQTFEQSSNVA | EMVTRAK | QQYNRLPLS: 1.38, 1.18, 0.86, 0.77, 0.73, 1.10 (mean 1.00; controls 0 of 18).
KLSMITGHLSMIKNNVA | EMETREN | QQYERLPLS: 0.62, 0.60, 0.36, 0.20, 0.39, 0.55 (mean 0.45; controls 1 of 18).
HMSMLTLGGLRHRNSVA | QMTTREN | QQYDRLPLA: 1.94, 1.59, 1.66, 1.82, 2.09, 1.60 (mean 1.78; controls 2 of 18).
MLSQMWALGQKVSNSVA | QASMRFN | QQYHRLPLI: 1.67, 1.73, 2.20, 1.39, 1.48, 1.72 (mean 1.70; controls 1 of 18).
KIGMTLNQLYEKVNNVA | DLVTREL | QQYHRLPLS: 1.02, 0.80, 0.79, 0.40, 0.51, 0.76 (mean 0.71; controls 0 of 18).
IVSQLMVWGWHAKNSIA | EAQTRLN | QQYDRLPLY: nd, 2.31, nd, nd, nd, nd (controls 0 of 18).
KIGMTLNTLMHQKNNVA | DLVMRES | QQYHRLPLS: 0.58, 0.27, 0.19, 0.10, 0.50, 0.46 (mean 0.35; controls 1 of 18).
KVSEFMRGLMSRKDSIA | DNVTRQN | QQYDRLPLS: 0.99, 1.20, 1.18, 0.70, 1.15, 1.27 (mean 1.08; controls 1 of 18).
KLTATMRFEQSKSNNIA | EVTQRSK | QQYARLPLA: 0.85, 0.94, 0.49, 0.26, 0.61, 0.38 (mean 0.59; controls 0 of 18).
HLSAMSLTETVKSRNVA | ENSTREQ | QQYDRLPLA: nd, nd, nd, nd, nd, nd (controls 0 of 18).
HMSALTLQGMRARNSVA | QMTTREN | QQYDHLPLS: 1.08, 0.54, 0.66, 0.81, 0.57, 0.91 (mean 0.76; controls 1 of 18).
KISQMVRVGSTVSNSIA | EMVTRAN | QQYHRLPLA: 1.54, 1.12, 0.90, 0.76, 2.17, 3.37 (mean 1.64; controls 0 of 18).
MISQLMNMGQFAINSVA | QASLRNE | QQYDRLPLI: 1.16, 1.69, 2.54, 0.71, 1.22, 1.50 (mean 1.47; controls 0 of 18).
KLSEFMRGLMGRKDSIA | DNTTRGS | QQYDRLPLA: 0.52, 0.76, 0.46, 0.56, 0.40, 0.40 (mean 0.52; controls 1 of 18).
MVSQLMMWGLHIKNSIA | EAVTRLN | QQYDRLPLF: nd, nd, nd, nd, 2.36, nd (controls 0 of 18).
HITYGMMLAGRHSSSIA | QAETRAK | QQYDRLPLI: 1.74, 1.42, nd, 1.21, 2.41, 1.84 (mean 1.72; controls 0 of 18).
MVNGIMDHLSKNSNNVA | EMTTREE | QQYERLPLS: 0.76, 0.79, 0.22, 0.38, 0.56, 0.48 (mean 0.53; controls 0 of 18).
MISQLYNMGQFAINSVA | QAEIRNE | QQYDRLPLI: 1.72, 0.40, 0.69, 0.96, 0.77, 1.32 (mean 0.97; controls 0 of 18).
MISDVMNTLTRNGDNVA | DLQEREQ | QQYFRLPLS: 0.37, nd, nd, 1.38, nd, 0.04 (mean 0.60; controls 0 of 18).
KLNMMTGLETKMRNSVA | QMTTREE | QQYNHLPLS: 0.40, 0.33, 0.13, 0.12, 0.10, 0.09 (mean 0.19; controls 1 of 18).
MMSQVTGMGQRHRNNVA | QTSTRED | QQYDRLPLV: 1.62, 1.59, 1.26, 1.12, 1.71, 1.31 (mean 1.44; controls 0 of 18).
NISHFMDVTAKNINNVA | EMTMREV | QQYHHLPLS: 0.89, 1.64, 1.75, 1.38, 1.66, 1.74 (mean 1.51; controls 0 of 18).
MISQVMNTLTHEGNNVA | DLQEREK | QQYFRLPLS: 0.78, 1.30, 2.12, 1.15, 1.47, 1.56 (mean 1.40; controls 1 of 18).
IVSQLMLWGYHAKNSIA | EAETRLN | QQYDRLPLF: 0.87, 0.91, 1.01, 0.52, 1.27, 1.31 (mean 0.98; controls 2 of 18).
IVSQLMLWGHLAKNSIA | EAEERLN | QQYDRLPLF: nd, nd, nd, nd, 1.66, nd (controls 0 of 18).
HITYGMMVAGRHHSSIA | QAENRAK | QQYDRLPLA: 1.41, 2.09, 1.58, 2.23, 1.53, 2.03 (mean 1.81; controls 0 of 18).
MVYESMDQALRTHNSIA | DNQTREN | QQYDRLPLS: 2.66, 3.46, 2.25, 3.32, 3.23, 2.51 (mean 2.91; controls 1 of 18).

Top 3 of the variants detected in all replicates, tightest first:

CDR-L1,CDR-L2,CDR-L3,log10 Kd (nM) by replicate,"mean, log10 nM",empty controls
MVTQMAMSGMTNKRSVA,NAETREY,QQYNRLPLI,"-0.16, -0.53, -0.58, -0.40, -0.81, -0.34",-0.47,0 of 18
SISGFMKSSMAHHNSVA,DMTNRED,QQYDRLPLS,"0.11, 0.11, 0.02, -0.25, -0.20, 0.02",-0.03,1 of 18
KLTMIQGTEKVRGNNVA,EMETREN,QQYNRLPLS,"0.07, 0.12, 0.06, 0.06, -0.03, -0.13",0.03,0 of 18